Earlier results on 1 substance are cited in paper PMC8780580, “The Neuroactive Steroid Pregnanolone Glutamate: Anticonvulsant Effect, Metabolites and Its Effect on Neurosteroid Levels in Developing Rat Brains” (Pharmaceuticals, 2021).

On the set-up of data set [1]: method as in PMID 9408083. Conditions: peripherally applied; cited from earlier work.
For data set [2] the following is noted: within 0.5 min of uptake; cited from earlier work.

With “pregnenolone sulfate [Pregnenolone sulfate (PE-S)]”, the “penetration across the BBB into the brain, slower compared with unconjugated counterpart” value in data set [1] is given as “about 10 times”. Further, the desulfation in data set [2] is recorded as greater than 50%.
